By UniProt entry, the sequences of proteins in these tests, tags left out.
UniProt P21447, whole entry: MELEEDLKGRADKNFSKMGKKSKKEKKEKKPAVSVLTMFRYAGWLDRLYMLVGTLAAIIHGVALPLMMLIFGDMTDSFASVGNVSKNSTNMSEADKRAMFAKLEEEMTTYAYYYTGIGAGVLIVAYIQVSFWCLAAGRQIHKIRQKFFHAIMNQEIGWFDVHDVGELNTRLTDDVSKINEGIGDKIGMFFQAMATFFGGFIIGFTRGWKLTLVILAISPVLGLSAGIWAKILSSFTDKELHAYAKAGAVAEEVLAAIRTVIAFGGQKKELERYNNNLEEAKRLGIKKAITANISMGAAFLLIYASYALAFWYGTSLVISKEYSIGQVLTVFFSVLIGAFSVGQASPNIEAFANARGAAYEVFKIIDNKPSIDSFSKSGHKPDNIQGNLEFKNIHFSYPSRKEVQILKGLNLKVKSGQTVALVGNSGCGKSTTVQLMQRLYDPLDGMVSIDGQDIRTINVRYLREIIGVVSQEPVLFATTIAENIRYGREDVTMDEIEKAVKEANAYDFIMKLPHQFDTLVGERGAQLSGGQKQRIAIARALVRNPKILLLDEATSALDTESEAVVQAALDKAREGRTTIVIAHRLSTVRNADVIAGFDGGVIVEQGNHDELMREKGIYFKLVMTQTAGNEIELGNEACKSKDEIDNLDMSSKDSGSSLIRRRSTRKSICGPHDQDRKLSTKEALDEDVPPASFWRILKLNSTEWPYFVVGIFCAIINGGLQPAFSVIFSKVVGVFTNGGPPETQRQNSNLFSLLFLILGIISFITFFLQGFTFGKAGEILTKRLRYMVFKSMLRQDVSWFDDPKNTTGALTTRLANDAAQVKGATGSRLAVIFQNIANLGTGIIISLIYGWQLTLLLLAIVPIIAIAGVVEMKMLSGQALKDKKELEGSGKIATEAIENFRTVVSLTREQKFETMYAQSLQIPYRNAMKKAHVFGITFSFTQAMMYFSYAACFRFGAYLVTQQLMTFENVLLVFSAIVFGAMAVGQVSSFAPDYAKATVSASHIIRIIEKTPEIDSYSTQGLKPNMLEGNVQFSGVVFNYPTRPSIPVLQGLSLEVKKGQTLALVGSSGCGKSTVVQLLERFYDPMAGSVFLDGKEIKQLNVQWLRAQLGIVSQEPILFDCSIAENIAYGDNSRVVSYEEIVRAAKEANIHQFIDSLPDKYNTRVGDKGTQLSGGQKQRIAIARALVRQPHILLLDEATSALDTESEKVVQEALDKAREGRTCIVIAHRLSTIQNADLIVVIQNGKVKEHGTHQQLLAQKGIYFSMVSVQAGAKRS

According to ChEMBL document CHEMBL2073745, “Disruption of the mouse mdr1a P-glycoprotein gene leads to a deficiency in the blood-brain barrier and to increased sensitivity to drugs” (Cell, 1994):

Target: ATP-dependent translocase ABCB1 (Mus musculus, UniProt P21447)
Assay: TP_TRANSPORTER: increase in brain concentration in mdr1a(-/-) mouse
Type: functional, organism-based
Conditions: in vivo

- Activity: substrate [+]
Sequence: IVERMECTIN
